Laboratory results reported in the Human Domainome abundance scans (Beltran et al. 2025).

B1: X-ray repair cross-complementing protein 6, residues 558 to 609; numbered along this chain, P12956 (parent)
chain: EYSEEELKTHISKGTLGKFTVPMLKEACRAYGLKSGLKKQELLEALTKHFQD

Variants of: B1
Assay: abundance fitness (aPCA) (normalised: wild type 0, dead -1); higher = more abundant; growth selection in yeast, the domain comes from the species named
Conditions: Homo sapiens
For L46Y, the abundance fitness was -0.706 ± 0.071.
In the case of F50C, the abundance fitness is reported as -0.387 ± 0.043.
F50S showed an abundance fitness of -0.529 ± 0.038.
Work on F50P yielded an abundance fitness of -0.702 ± 0.13.
For F50A, the abundance fitness was -0.487 ± 0.08.
Work on F50T yielded an abundance fitness of -0.738 ± 0.11.
For F50H, the abundance fitness was -0.765 ± 0.36.
F50I showed an abundance fitness of -0.4 ± 0.14.
In the case of F50R, the abundance fitness is reported as -0.964 ± 0.1.
Work on F50K yielded an abundance fitness of -0.766 ± 0.17.
F50W gave an abundance fitness of -0.443 ± 0.04.
Work on F50G yielded an abundance fitness of -0.705 ± 0.063.
F50M showed an abundance fitness of -0.304 ± 0.082.
Work on F50L yielded an abundance fitness of -0.366 ± 0.058.
For F50Q, the abundance fitness was -0.398 ± 0.14.
F50Y gave an abundance fitness of -0.392 ± 0.15.
Work on F50V yielded an abundance fitness of -0.239 ± 0.057.
In the case of Q51Y, the abundance fitness is reported as -0.329 ± 0.41.
In the case of Q51F, the abundance fitness is reported as -0.301 ± 0.066.
Q51P gave an abundance fitness of -0.566 ± 0.19.
Q51E gave an abundance fitness of -0.286 ± 0.11.
For Q51A, the abundance fitness was -0.145 ± 0.28.
Q51C gave an abundance fitness of -0.66 ± 0.24.
With Q51R the abundance fitness was -0.181 ± 0.07.
Q51M showed an abundance fitness of -0.255 ± 0.14.
For Q51S, the abundance fitness was 0.019 ± 0.087.
Work on Q51T yielded an abundance fitness of -0.294 ± 0.17.
For Q51L, the abundance fitness was -0.714 ± 0.14.
Q51H gave an abundance fitness of -0.124 ± 0.23.
In the case of Q51D, the abundance fitness is reported as -0.19 ± 0.067.
Work on K48M yielded an abundance fitness of -0.006 ± 0.085.
With K48V the abundance fitness was -0.152 ± 0.068.
In the case of K48E, the abundance fitness is reported as 0.02 ± 0.082.
K48I showed an abundance fitness of -0.338 ± 0.14.
For K48R, the abundance fitness was -0.086 ± 0.061.
In the case of K48L, the abundance fitness is reported as -0.043 ± 0.066.
K48F gave an abundance fitness of -0.354 ± 0.15.
In the case of K48S, the abundance fitness is reported as -0.115 ± 0.083.
In the case of K48Q, the abundance fitness is reported as 0.166 ± 0.1.
With K48H the abundance fitness was -0.368 ± 0.16.
Variant K48Y has an abundance fitness of -0.313 ± 0.12.
For K48A, the abundance fitness was -0.018 ± 0.08.
Variant K48T has an abundance fitness of -0.109 ± 0.088.
Work on K48W yielded an abundance fitness of -0.297 ± 0.077.
For K48N, the abundance fitness was -0.088 ± 0.076.
Variant K48D has an abundance fitness of -0.031 ± 0.054.
In the case of K48C, the abundance fitness is reported as -0.11 ± 0.076.
K48P gave an abundance fitness of -0.811 ± 0.17.
Work on H49F yielded an abundance fitness of 0.281 ± 0.1.
In the case of H49T, the abundance fitness is reported as -0.663 ± 0.13.
H49S gave an abundance fitness of -0.466 ± 0.085.
H49N showed an abundance fitness of -0.508 ± 0.2.
H49K gave an abundance fitness of -0.413 ± 0.078.
H49V gave an abundance fitness of -0.594 ± 0.066.
H49L gave an abundance fitness of -0.654 ± 0.086.
In the case of H49E, the abundance fitness is reported as -0.562 ± 0.12.
With H49A the abundance fitness was -0.426 ± 0.049.
H49I showed an abundance fitness of -0.573 ± 0.089.
Variant H49D has an abundance fitness of -0.932 ± 0.21.
In the case of H49W, the abundance fitness is reported as -0.403 ± 0.069.
Variant H49M has an abundance fitness of -0.346 ± 0.11.
H49C gave an abundance fitness of -0.398 ± 0.12.
For H49Y, the abundance fitness was -0.096 ± 0.093.
H49R gave an abundance fitness of -0.225 ± 0.04.
For H49P, the abundance fitness was -0.534 ± 0.15.
D52S gave an abundance fitness of -0.495 ± 0.15.
Variant D52G has an abundance fitness of 0.063 ± 0.11.
Work on D52P yielded an abundance fitness of -0.512 ± 0.23.
For D52Y, the abundance fitness was 0.184 ± 0.11.
Work on D52V yielded an abundance fitness of -0.342 ± 0.13.
Variant D52E has an abundance fitness of 0.11 ± 0.062.
In the case of D52A, the abundance fitness is reported as -0.355 ± 0.13.
With D52T the abundance fitness was -0.208 ± 0.4.
In the case of T47K, the abundance fitness is reported as -0.372 ± 0.12.
T47N showed an abundance fitness of -0.465 ± 0.12.
In the case of T47P, the abundance fitness is reported as -0.614 ± 0.15.
In the case of T47A, the abundance fitness is reported as -0.091 ± 0.08.
T47V showed an abundance fitness of -0.288 ± 0.075.
In the case of T47F, the abundance fitness is reported as -0.38 ± 0.21.
In the case of T47D, the abundance fitness is reported as -0.141 ± 0.075.
In the case of T47I, the abundance fitness is reported as -0.067 ± 0.059.
T47S gave an abundance fitness of -0.321 ± 0.087.
Variant T47G has an abundance fitness of -0.289 ± 0.048.
T47M showed an abundance fitness of -0.166 ± 0.12.
For T47C, the abundance fitness was -0.355 ± 0.13.
In the case of T47L, the abundance fitness is reported as -0.114 ± 0.065.
Variant T47Y has an abundance fitness of -0.066 ± 0.11.
In the case of T47W, the abundance fitness is reported as -0.585 ± 0.082.
T47R gave an abundance fitness of -0.266 ± 0.079.
Work on T47E yielded an abundance fitness of -0.386 ± 0.098.

± gives the uncertainty stated by the source.
